Test system: isolated rabbit thoracic aorta preparations
Test: Vessel relaxation in isolated rabbit thoracic aorta rings precontracted with noradrenaline
Details: for Max. Relaxation: @ 30 μM; for EC50: aortic rings contracted with noradrenaline 1 μM, functional endothelium, concentration producing 50% of the maximum relaxation

Compound	Max. Relaxation	EC50
O=[N+]([O-])O[C@H]1C[C@@H](O)C[C@H]1O[N+](=O)[O-]	69%	4.4 µM
O=[N+]([O-])O[C@H]1C[C@H](O)C[C@H]1O[N+](=O)[O-]	78%	4.7 µM
